# From the kinase profiling compilation of Christmann-Franck et al. (2016)
# The chains behind the UniProt entries cited, without tags or fusion partners. Where a name states a change or a piece, a line headed by the entry shows the natural chain unless it says otherwise.
# UniProt Q13976: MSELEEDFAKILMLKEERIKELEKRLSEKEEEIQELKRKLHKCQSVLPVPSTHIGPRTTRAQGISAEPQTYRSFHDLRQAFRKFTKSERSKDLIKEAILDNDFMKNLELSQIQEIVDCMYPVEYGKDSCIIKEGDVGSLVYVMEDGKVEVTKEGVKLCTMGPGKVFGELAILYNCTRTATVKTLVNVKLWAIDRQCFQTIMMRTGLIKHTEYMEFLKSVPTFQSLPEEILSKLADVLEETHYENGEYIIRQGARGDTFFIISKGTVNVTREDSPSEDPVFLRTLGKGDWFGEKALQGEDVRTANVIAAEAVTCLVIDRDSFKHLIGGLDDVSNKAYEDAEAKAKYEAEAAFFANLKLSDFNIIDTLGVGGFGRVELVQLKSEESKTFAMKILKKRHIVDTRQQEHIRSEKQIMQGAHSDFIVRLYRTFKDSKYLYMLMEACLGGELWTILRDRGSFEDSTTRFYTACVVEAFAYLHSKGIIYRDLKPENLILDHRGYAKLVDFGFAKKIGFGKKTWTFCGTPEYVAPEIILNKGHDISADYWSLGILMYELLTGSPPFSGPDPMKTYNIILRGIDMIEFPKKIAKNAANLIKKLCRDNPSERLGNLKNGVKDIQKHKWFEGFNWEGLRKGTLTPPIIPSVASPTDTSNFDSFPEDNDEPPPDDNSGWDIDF
# UniProt Q9UL54: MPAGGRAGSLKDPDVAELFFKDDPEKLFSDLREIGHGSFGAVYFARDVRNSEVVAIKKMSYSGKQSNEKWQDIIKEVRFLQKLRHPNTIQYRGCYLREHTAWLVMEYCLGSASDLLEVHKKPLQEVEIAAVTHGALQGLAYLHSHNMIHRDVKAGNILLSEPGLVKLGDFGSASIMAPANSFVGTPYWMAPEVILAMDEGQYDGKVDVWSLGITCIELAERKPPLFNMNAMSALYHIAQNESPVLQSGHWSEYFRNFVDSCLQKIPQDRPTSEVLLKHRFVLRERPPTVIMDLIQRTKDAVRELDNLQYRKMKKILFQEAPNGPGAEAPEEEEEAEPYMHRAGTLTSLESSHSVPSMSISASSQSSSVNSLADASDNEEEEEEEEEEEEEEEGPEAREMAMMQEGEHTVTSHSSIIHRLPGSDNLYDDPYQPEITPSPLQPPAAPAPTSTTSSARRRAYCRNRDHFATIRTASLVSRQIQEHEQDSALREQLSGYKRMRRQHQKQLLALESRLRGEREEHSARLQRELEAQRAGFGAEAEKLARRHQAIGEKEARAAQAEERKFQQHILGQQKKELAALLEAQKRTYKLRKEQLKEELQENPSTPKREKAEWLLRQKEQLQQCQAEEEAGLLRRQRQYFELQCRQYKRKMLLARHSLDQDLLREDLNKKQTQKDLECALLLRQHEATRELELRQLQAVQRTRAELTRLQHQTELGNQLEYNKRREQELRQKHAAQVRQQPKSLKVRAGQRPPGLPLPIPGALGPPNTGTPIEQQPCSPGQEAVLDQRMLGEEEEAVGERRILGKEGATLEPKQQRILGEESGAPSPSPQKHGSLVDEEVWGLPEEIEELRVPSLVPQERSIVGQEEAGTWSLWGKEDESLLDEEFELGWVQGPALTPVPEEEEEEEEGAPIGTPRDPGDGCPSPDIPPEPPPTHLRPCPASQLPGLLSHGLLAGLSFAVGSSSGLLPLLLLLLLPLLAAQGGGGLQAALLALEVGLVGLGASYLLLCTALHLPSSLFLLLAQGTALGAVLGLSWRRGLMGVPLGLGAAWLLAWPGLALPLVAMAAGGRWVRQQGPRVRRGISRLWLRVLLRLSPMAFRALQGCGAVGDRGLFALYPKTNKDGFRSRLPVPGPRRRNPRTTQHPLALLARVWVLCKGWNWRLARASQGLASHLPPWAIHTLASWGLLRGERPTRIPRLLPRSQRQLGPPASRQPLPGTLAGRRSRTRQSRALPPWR
# UniProt P28482, whole entry, looked up: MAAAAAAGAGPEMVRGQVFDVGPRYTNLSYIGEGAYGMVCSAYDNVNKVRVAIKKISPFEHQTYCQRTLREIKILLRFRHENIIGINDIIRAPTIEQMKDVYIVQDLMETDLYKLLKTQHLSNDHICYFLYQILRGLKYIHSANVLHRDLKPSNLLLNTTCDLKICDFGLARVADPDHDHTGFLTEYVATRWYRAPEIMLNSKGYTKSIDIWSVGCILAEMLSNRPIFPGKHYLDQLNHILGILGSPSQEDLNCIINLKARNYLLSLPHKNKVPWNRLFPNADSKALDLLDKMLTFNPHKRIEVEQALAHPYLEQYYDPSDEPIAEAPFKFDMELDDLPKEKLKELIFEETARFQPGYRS
# UniProt P45983: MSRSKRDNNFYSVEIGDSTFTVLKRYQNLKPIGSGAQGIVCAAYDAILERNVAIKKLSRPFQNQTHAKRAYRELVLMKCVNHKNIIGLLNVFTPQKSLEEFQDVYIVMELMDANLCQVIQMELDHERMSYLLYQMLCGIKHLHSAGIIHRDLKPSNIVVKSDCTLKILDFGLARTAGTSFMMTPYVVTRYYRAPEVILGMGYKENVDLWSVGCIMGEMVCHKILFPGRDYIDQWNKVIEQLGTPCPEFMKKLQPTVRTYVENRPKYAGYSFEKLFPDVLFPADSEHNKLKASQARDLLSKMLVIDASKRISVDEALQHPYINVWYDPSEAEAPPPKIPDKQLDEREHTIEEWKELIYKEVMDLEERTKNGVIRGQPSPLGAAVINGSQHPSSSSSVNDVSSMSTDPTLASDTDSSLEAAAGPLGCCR
# UniProt O14965: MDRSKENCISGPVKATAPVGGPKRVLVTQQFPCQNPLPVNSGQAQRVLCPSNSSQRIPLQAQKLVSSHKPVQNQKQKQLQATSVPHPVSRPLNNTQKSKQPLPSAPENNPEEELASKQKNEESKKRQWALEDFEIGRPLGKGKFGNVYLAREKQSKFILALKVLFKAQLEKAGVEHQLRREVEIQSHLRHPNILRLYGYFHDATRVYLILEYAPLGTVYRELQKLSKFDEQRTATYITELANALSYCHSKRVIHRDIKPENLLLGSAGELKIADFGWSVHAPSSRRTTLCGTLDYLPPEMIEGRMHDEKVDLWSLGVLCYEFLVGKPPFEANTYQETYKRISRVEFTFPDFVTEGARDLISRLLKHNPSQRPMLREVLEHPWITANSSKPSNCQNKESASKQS
# UniProt Q02763: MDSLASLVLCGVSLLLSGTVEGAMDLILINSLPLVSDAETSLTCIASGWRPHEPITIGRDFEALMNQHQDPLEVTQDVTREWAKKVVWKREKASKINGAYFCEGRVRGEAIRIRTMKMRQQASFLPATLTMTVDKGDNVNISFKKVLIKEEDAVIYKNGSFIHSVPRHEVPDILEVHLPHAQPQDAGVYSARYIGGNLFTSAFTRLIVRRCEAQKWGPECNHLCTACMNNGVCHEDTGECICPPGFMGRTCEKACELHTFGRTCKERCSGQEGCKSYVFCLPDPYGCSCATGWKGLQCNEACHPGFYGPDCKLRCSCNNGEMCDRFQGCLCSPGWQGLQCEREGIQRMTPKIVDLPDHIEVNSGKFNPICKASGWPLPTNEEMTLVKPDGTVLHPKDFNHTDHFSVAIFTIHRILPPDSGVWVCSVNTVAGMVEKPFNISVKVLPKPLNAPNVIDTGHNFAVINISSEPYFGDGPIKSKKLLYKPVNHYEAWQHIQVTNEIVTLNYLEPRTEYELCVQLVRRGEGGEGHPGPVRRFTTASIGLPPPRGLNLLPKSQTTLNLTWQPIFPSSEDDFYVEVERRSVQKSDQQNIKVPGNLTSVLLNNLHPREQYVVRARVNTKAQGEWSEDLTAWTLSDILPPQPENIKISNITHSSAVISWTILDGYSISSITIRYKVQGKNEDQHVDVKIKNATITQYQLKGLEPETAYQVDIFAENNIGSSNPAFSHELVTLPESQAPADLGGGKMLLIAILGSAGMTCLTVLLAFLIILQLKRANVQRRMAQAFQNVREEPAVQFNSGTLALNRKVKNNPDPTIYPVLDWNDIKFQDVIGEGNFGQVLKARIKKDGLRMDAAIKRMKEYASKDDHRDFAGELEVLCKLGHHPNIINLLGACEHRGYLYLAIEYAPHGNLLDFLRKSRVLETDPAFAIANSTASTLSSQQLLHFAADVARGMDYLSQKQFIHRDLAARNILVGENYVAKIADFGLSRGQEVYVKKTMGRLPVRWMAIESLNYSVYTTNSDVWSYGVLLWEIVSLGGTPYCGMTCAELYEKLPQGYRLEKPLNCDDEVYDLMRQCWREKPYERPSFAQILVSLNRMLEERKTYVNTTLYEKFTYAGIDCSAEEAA
# UniProt Q9P286: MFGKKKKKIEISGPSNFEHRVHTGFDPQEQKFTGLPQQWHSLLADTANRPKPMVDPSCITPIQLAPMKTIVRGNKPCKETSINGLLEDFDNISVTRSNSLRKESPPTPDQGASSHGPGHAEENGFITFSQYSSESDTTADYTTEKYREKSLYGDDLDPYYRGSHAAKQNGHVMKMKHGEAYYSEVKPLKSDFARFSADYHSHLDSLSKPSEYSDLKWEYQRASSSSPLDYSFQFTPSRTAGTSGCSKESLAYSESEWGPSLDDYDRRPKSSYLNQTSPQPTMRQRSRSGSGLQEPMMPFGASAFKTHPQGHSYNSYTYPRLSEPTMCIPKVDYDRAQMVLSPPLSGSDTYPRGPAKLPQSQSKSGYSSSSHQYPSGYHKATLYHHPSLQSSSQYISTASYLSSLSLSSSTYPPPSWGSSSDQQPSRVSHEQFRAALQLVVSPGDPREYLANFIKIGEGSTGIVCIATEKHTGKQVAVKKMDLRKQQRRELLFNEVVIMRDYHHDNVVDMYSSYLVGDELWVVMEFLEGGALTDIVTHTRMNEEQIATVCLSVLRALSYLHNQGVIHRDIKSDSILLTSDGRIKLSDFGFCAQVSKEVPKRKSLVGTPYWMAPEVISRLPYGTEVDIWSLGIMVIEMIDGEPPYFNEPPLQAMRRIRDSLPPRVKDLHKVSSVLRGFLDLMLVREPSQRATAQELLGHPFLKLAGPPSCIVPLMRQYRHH
# UniProt Q13882, whole entry, looked up: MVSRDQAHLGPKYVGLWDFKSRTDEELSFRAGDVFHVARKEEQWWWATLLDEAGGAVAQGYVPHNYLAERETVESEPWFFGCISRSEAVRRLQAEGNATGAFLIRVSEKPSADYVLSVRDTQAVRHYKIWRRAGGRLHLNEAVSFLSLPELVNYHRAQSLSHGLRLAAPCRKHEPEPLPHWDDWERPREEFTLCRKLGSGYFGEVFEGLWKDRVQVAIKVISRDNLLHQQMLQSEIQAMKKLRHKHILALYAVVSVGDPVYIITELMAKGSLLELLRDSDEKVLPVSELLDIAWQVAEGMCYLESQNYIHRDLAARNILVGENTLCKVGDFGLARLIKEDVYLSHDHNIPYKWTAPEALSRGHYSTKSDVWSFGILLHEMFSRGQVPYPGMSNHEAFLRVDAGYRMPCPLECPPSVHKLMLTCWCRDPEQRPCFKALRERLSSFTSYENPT
# UniProt Q9P1W9: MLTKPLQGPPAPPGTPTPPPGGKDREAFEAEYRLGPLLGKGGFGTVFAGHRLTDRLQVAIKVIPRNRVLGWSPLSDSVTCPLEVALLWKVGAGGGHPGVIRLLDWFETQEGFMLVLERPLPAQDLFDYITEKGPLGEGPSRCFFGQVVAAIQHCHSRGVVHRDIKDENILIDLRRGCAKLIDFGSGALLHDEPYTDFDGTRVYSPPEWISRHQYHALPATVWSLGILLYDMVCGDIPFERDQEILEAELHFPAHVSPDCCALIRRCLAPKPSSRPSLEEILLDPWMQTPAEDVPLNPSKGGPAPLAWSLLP
# UniProt Q9H2K8: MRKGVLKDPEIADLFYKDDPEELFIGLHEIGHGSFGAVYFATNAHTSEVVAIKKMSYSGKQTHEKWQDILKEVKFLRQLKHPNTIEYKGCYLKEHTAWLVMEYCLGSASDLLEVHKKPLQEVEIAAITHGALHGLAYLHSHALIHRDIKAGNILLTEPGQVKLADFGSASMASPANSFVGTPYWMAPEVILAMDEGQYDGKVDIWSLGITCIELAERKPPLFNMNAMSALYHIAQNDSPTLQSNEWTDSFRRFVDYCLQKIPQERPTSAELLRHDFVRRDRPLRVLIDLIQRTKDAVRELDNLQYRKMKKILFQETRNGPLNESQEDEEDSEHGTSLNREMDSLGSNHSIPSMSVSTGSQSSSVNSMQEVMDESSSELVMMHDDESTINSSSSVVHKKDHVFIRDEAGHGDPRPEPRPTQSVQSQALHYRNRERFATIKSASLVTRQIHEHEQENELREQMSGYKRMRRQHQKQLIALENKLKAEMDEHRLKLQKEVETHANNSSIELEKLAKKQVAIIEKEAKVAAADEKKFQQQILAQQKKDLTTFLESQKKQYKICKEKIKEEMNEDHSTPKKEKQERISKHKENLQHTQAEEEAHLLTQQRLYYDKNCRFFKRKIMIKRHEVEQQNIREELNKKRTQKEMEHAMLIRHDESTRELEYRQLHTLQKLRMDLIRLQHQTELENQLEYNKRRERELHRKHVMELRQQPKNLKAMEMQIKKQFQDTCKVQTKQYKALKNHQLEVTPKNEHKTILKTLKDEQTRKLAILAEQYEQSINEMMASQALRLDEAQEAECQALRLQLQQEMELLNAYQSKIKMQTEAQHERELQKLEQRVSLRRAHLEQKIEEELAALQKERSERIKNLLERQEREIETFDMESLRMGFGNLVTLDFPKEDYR
# Values joined by “and” are separate entries in the source; they are usually repeats but may differ in a detail not shown here. Equal values may be shown once.
# Legend:
# Assay in all cases: radiometric filter-binding kinase assay, Kinase HotSpot
# Conditions in all cases: compound 0.5 µM; ATP 10 µM
# MLTK (human) = MLTK (human) (UniProt Q9NYL2)
# CSNK1E (human) = CSNK1E (human) (UniProt P49674)
# PRKG1 (human) = PRKG1 (human) (UniProt Q13976)
# PRKX (human) = PRKX (human) (UniProt P51817)
# MET (human) = MET (human) (UniProt P08581)
# TAOK2 (human) = TAOK2 (human) (UniProt Q9UL54)
# MAPK1 (human) = MAPK1 (human) (UniProt P28482)
# MAPK8 (human) = MAPK8 (human) (UniProt P45983)
# DDR2 (human) = DDR2 (human) (UniProt Q16832)
# CHEK2 (human) = CHEK2 (human) (UniProt O96017)
# PRKCG (human) = PRKCG (human) (UniProt P05129)
# ULK2 (human) = ULK2 (human) (UniProt Q8IYT8)
# PKN1 (human) = PKN1 (human) (UniProt Q16512)
# MELK (human) = MELK (human) (UniProt Q14680)
# AKT1 (human) = AKT1 (human) (UniProt P31749)
# AURKA (human) = AURKA (human) (UniProt O14965)
# CLK1 (human) = CLK1 (human) (UniProt P49759)
# TEK (human) = TEK (human) (UniProt Q02763)
# DYRK3 (human) = DYRK3 (human) (UniProt O43781)
# EPHA4 (human) = EPHA4 (human) (UniProt P54764)
# ACVR1B (human) = ACVR1B (human) (UniProt P36896)
# EPHA8 (human) = EPHA8 (human) (UniProt P29322)
# DAPK2 (human) = DAPK2 (human) (UniProt Q9UIK4)
# TSSK2 (human) = TSSK2 (human) (UniProt Q96PF2)
# PAK7 (human) = PAK7 (human) (UniProt Q9P286)
# BRSK2 (human) = BRSK2 (human) (UniProt Q8IWQ3)
# SYK (human) = SYK (human) (UniProt P43405)
# INSRR (human) = INSRR (human) (UniProt P14616)
# CSK (human) = CSK (human) (UniProt P41240)
# PTK6 (human) = PTK6 (human) (UniProt Q13882)
# TAOK1 (human) = TAOK1 (human) (UniProt Q7L7X3)
# PRKACA (human) = PRKACA (human) (UniProt P17612)
# ROCK1 (human) = ROCK1 (human) (UniProt Q13464)
# CAMK2A (human) = CAMK2A (human) (UniProt Q9UQM7)
# PIM2 (human) = PIM2 (human) (UniProt Q9P1W9)
# EPHA1 (human) = EPHA1 (human) (UniProt P21709)
# RPS6KA6 KD1 KD2 (human) = RPS6KA6 KD1 KD2 (human) (UniProt Q9UK32)
# CAMK2D (human) = CAMK2D (human) (UniProt Q13557)
# TAOK3 (human) = TAOK3 (human) (UniProt Q9H2K8)
# IKBKE (human) = IKBKE (human) (UniProt Q14164)
# DSTYK (human) = DSTYK (human) (UniProt Q6XUX3)
# MAPK11 (human) = MAPK11 (human) (UniProt Q15759)
smiles,measurement,setting,value
CO[C@H]1[C@@H](OC)C[C@H](C)[C@@H](OC)C2=CC(=O)C=C(NC(=O)/C(C)=C\C=C/[C@H](OC)[C@@H](OC(N)=O)/C(C)=C\[C@@H]1C)C2=O,residual activity,MLTK (human),92.2%
same,residual activity,CSNK1E (human),85.9%
same,residual activity,PRKG1 (human),95.7% and 98.9%
same,residual activity,PRKX (human),97.2%
same,residual activity,MET (human),135%
same,residual activity,TAOK2 (human),89.4%
same,residual activity,MAPK1 (human),94.4%
same,residual activity,MAPK8 (human),103%
same,residual activity,DDR2 (human),97.9%
same,residual activity,CHEK2 (human),101%
same,residual activity,PRKCG (human),90.4%
same,residual activity,ULK2 (human),107%
same,residual activity,PKN1 (human),104%
same,residual activity,MELK (human),97.9%
same,residual activity,AKT1 (human),93.3%
same,residual activity,AURKA (human),91%
same,residual activity,CLK1 (human),101%
same,residual activity,TEK (human),96.3%
same,residual activity,DYRK3 (human),101%
same,residual activity,EPHA4 (human),106%
same,residual activity,ACVR1B (human),99.5%
same,residual activity,EPHA8 (human),94.4%
same,residual activity,DAPK2 (human),95.8%
same,residual activity,TSSK2 (human),98.3%
same,residual activity,PAK7 (human),93.8%
same,residual activity,BRSK2 (human),95.2%
same,residual activity,SYK (human),89.5%
same,residual activity,INSRR (human),95.2%
same,residual activity,CSK (human),98%
same,residual activity,PTK6 (human),104%
same,residual activity,TAOK1 (human),99.3%
same,residual activity,PRKACA (human),94.2%
same,residual activity,ROCK1 (human),105%
same,residual activity,CAMK2A (human),98.3%
same,residual activity,PIM2 (human),87%
same,residual activity,EPHA1 (human),103%
same,residual activity,RPS6KA6 KD1 KD2 (human),104%
same,residual activity,CAMK2D (human),101%
same,residual activity,TAOK3 (human),102%
same,residual activity,IKBKE (human),103%
same,residual activity,DSTYK (human),110%
same,residual activity,MAPK11 (human),95.9%
